Results from US10327448B2, “Bacterium of Bacillus genus and uses thereof” (priority 2014, dated 2019).

Test system: Bacillus subtilis ssp. shriramensis (MTCC-5674)
Assay: Antibiotic sensitivity test (antibiotic discs on T3 agar); further: key: RES - Resistant; INT - Intermediate; SEN - Sensitive
Format: cell-based
Conditions: antibiotic disc on T3 agar, 30° C. for 24 hours; judged against Standards
Experimental: Different antibiotic discs were placed on the surface of the T3 agar plates labelled with the respective antibiotic. The plates were incubated at 30° C. for 24 hours.

CCC[C@@H]1C[C@@H](C(=O)N[C@@H]([C@H]2O[C@H](SC)[C@H](O)[C@@H](O)[C@H]2O)[C@H](C)Cl)N(C)C1 [Clindamycin]
Result: RES
